Values quoted from earlier work as cited in patent publication US12379360B2, “Detection system for an electronic nose allowing a physicochemical classification of odours and electronic nose comprising such a system” (COMMISSARIAT À L'ÉNERGIE ATOMIQUE ET AUX ÉNERGIES …, priority 2019, dated 2025).

Settings: pure compound

## CC(=O)O [AcOH, acetic acid]
  n (refractive index): 1.372
